An excerpt weighted towards active compounds, which were near 2.8% of everything screened.
Statin myotox sup: suppressors of statin myotoxicity in C2C12 myotubes, primary screen, cell-based, single point, plate reader | 330,000 compounds, 0.78% hits | AID 602340, 2012 | C2C12 myotubes + simvastatin, ATP luminescence, 48 h; scaled: DMSO 0, geranylgeraniol control 100 | rescue of ATP level, % at 7.49 µM;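 active means mean ATP rescue above about 67%, or every replicate alone reaching that limit, limit read from the data, passing the limit was not always enough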;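 further: myotubes were challenged with 10 µM simvastatin during compound exposure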
Yeast UUG start-1: yeast start codon fidelity modulation; AID 602363; activity score, % at 18.7 µM; S. cerevisiae UUG-firefly luciferase reporter, luminescence/redox ratio; 0.13% of 350,000 active;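 active means replicate mean at a twofold rise or more, about +100% in these data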;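 further: firefly luciferase made from a UUG start codon reports start codon fidelity; reporter light over untreated wells divided by growth signal over untreated wells; some hits fall short of that in this replicate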
esBAF inh: Bmi1 luciferase reporter increase in mESCs, primary screen, esBAF inhibitor project, mouse ES cells, Bmi1 luciferase knock-in, single point | 24 h; 100% = twice the neutral-well signal | reporter increase, % at 12.5 µM | 350,000 compounds, 2% hits | AID 602393, 2012; in the data active means activation above about 40%;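 further: 0% = median of the plate's neutral control wells and 100% = double that signal; a rise in the Bmi1 reporter signal indicates esBAF inhibition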
E-selectin induc: E-selectin induction in HUVECs, primary screen, imaging, HUVEC, immunofluorescence imaging, single point. P16581. normalized: neutral wells 0, TNF-alpha wells 100. activation, % at 7.58 µM. 260,000 compounds, 0.37% hits;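 active means mean E-selectin-positive cell signal at least 10% of the positive control, reached in at least 60% of replicates, without over 20% cell loss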
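Test system: HUVEC; input: 3,000 HUVEC/well; measured by: immunofluorescence imaging; read-out: % PE-positive cells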
PglD DTNB: C. jejuni PglD acetyltransferase inhibitors, primary screen, biochemical, DTNB colorimetric, single point | AID 602405, 2012 | 360,000 compounds, 0.098% hits | UDP-N-acetylbacillosamine N-acetyltransferase PglD (Campylobacter jejuni) | inhibition, % at 12.5 µM | purified PglD enzyme, DTNB colorimetric CoA detection; in the data active means inhibition above about 16%, passing the limit was not always enough
PGC1a acetyl inh: inhibitors of PGC1a acetylation signal, primary screen, cell-based, U2OS, AlphaScreen, inhibitor mode | AID 651687, 2012 | AlphaScreen anti-acetyl-lysine; with virally co-expressed GCN5 acetyltransferase | inhibition, % at 15.6 µM | 350,000 compounds, 0.17% hits;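 active means every replicate shows inhibition of at least 40%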;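 further: 0% = neutral control wells and 100% = positive control wells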
Yeast UUG start-2: enhancers of UUG start codon usage in yeast, dose response, S. cerevisiae, UUG firefly luciferase, cherry-pick, set 2; shares compounds with Yeast UUG start-1; activation, % at 38 µM; AID 652061, 2013; 540 tested, under 10 active; luminescence, 4 h; 100% means double the DMSO signal;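 active means signal increase whose fitted curve reaches an absolute level of 40 at a concentration under 10 µM; inactive means activity opposite to the expected increase, or the rest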
Starred values were filed as active, the others as inactive; i = inactive; nt = no result given.

SMILES | Statin myotox sup | Yeast UUG start-1 | esBAF inh | E-selectin induc | PglD DTNB | PGC1a acetyl inh | Yeast UUG start-2
COc1ccc(S(=O)(=O)Nc2cccc3c2O[C@@H](CN(C)C(=O)NC2CCCCC2)[C@H](C)CN([C@@H](C)CO)C3=O)cc1 | -16 | 3 | 2 | 0 | 1 | -7 | nt
C[C@@H]1CCCCO[C@H](CN(C)S(=O)(=O)c2ccc(Cl)cc2)[C@H](C)CN([C@H](C)CO)C(=O)c2cc(NC(=O)CCC(F)(F)F)ccc2O1 | nt | 2 | -3 | 1 | 3 | -4 | nt
CCCC(=O)Nc1ccc2c(c1)OC[C@H](C)N(CCC)C[C@@H](C)[C@H](OC)CN(C)C2=O | -13 | nt | -2 | 0 | -1 | 13 | nt
CCN1CCN(CCC2Oc3cc([N+](=O)[O-])ccc3NC2=O)CC1 (stereo not drawn) | -5 | -21 | -2 | 0 | -8 | 8 | 5
O=C1Nc2ccc([N+](=O)[O-])cc2OC1CCN1CCN(Cc2ccc3c(c2)OCO3)CC1 (stereo not drawn) | 4 | 611* | 0 | -1 | 2 | -4 | 6
O=Cc1cc([N+](=O)[O-])ccc1N1CCN(Cc2ccc3c(c2)OCO3)CC1 | -11 | -6 | 0 | 0 | -6 | 8 | nt
O=C1Nc2ccc([N+](=O)[O-])cc2OC1CCN1CCN(Cc2ccccc2)CC1 (stereo not drawn) | nt | nt | nt | nt | nt | -6 | 8
COc1ccc(N2CCN(CCC3Oc4cc([N+](=O)[O-])ccc4NC3=O)CC2)cc1 (stereo not drawn) | -1 | -19 | -1 | nt | -4 | 0 | nt
C[C@@H]1CN([C@H](C)CO)S(=O)(=O)c2ccc(C3=CCCCC3)cc2O[C@H]1CN(C)C(=O)C1CC1 | -22 | 10 | -3 | 0 | 4 | -10 | nt
CCc1ccc(/C=N/NC(=O)c2cc(C3CC3)nc3ccccc23)s1 | -94 | 307* | -17 | nt | -1 | nt | -4
C[C@@H]1CN([C@H](C)CO)C(=O)c2cc(NC(=O)CCCN(C)C)ccc2O[C@@H](C)CCCCO[C@H]1CN(C)S(=O)(=O)c1ccc(Cl)cc1 | 1 | -11 | 4 | 0 | 1 | -4 | nt
C[C@@H]1CCCCO[C@@H](CN(C)CC2CC2)[C@@H](C)CN([C@H](C)CO)C(=O)c2cc(NS(=O)(=O)c3cn(C)cn3)ccc2O1 | nt | nt | -1 | 0 | -7 | 6 | nt
Cc1ccccc1-n1c(SCC(=O)c2cc(C)n(C)c2C)nnc1-c1ccncc1 | -10 | -18 | 4 | nt | 1 | 1 | 10
Cc1ccccc1-n1c(SCC(=O)N(C)C2CCS(=O)(=O)C2)nnc1-c1ccncc1 (stereo not drawn) | 4 | -17 | -9 | 2 | 2 | 11 | nt
O=C(C[C@H]1C[C@@H]2c3cc(NC(=O)C4CCOCC4)ccc3O[C@@H]2[C@H](CO)O1)NC1CCCC1 | -5 | 102* | -1 | 0 | 2 | 6 | i
O=C(C[C@@H]1C[C@H]2c3cc(NC(=O)C4CCOCC4)ccc3O[C@H]2[C@@H](CO)O1)NC1CCCC1 | -6 | -1 | -1 | 0 | 2 | 4 | nt
O=C(C[C@@H]1C[C@H]2c3cc(NC(=O)C4CCC4)ccc3O[C@H]2[C@H](CO)O1)NCC1CC1 | -7 | 104* | -1 | 0 | 4 | 4 | i
COCC(=O)Nc1ccc2c(c1)[C@@H]1C[C@H](CC(=O)NC3CCCCC3)O[C@H](CO)[C@@H]1O2 | -1 | 107* | 1 | 0 | 1 | 0 | i
CNC(=O)C[C@H]1CC[C@H]2[C@H](COc3ccc(NC(=O)Nc4cccc(Cl)c4)cc3C(=O)N2C)O1 | 9 | 23 | -2 | 0 | 2 | -2 | nt
CCCN1[C@H](C(=O)N(C)C)[C@@H](CO)[C@@H]2Cn3c(ccc(-c4ccccc4OC)c3=O)[C@@H]21 | -7 | nt | 2 | 0 | -2 | nt | nt

Laid out differently: results already given
The line under a structure holds: Statin myotox sup	Yeast UUG start-1	esBAF inh	E-selectin induc	PglD DTNB	PGC1a acetyl inh	Yeast UUG start-2
> C[C@@H]1CCCCO[C@H](CN(C)S(=O)(=O)c2ccc(Cl)cc2)[C@H](C)CN([C@H](C)CO)C(=O)c2cc(NC(=O)CCC(F)(F)F)ccc2O1
→ nt	2	-3	1	3	-4	nt
> CCCC(=O)Nc1ccc2c(c1)OC[C@H](C)N(CCC)C[C@@H](C)[C@H](OC)CN(C)C2=O
→ -13	nt	-2	0	-1	13	nt
> CCN1CCN(CCC2Oc3cc([N+](=O)[O-])ccc3NC2=O)CC1 (stereo not drawn)
→ -5	-21	-2	0	-8	8	5
> O=C1Nc2ccc([N+](=O)[O-])cc2OC1CCN1CCN(Cc2ccc3c(c2)OCO3)CC1 (stereo not drawn)
→ 4	611*	0	-1	2	-4	6

Next structures follow:
SMILES | Statin myotox sup | Yeast UUG start-1 | esBAF inh | E-selectin induc | PglD DTNB | PGC1a acetyl inh | Yeast UUG start-2
O=C(NCCN1CCOCC1)C(=O)NCC1OCCCN1S(=O)(=O)c1cc(F)ccc1F (stereo not drawn) | 7 | 172* | 3 | nt | 0 | nt | -2
C[C@@H]1CN([C@H](C)CO)C(=O)CCCn2cc(nn2)CO[C@@H]1CN(C)C(=O)NC1CCCCC1 | -1 | nt | -2 | 0 | nt | -1 | nt
O=C(c1ccc(Cn2c(=O)[nH]c3ccccc3c2=O)cc1)N1CCN(c2ccccc2)CC1 | 15 | 480* | -3 | nt | 4 | 1 | 15
CC(=O)N(C)C[C@@H]1Oc2cc(Br)ccc2S(=O)(=O)N([C@@H](C)CO)C[C@@H]1C | -5 | 63* | 0 | 0 | -5 | -7 | i
COc1cccc(-c2ccc3c(c2)O[C@H](CN(C)Cc2cncnc2)[C@@H](C)CN([C@@H](C)CO)S3(=O)=O)c1 | -9 | -7 | 1 | 0 | 2 | -22 | nt
C[C@H]1CN([C@@H](C)CO)S(=O)(=O)c2ccc(-c3cccc(C(=O)N(C)C)c3)cc2O[C@H]1CN(C)C(=O)Nc1ccc(F)cc1 | -8 | 0 | 1 | 0 | 0 | 1 | nt
COc1cccc(-c2ccc3c(c2)O[C@@H](CN(C)Cc2ccncc2)[C@@H](C)CN([C@H](C)CO)S3(=O)=O)c1 | -8 | 166* | 2 | 1 | 0 | -9 | i
C[C@H](CO)N1C[C@H](C)[C@H](CN(C)C(=O)CN(C)C)Oc2cc(-c3ccccc3)ccc2S1(=O)=O | 2 | 35* | -2 | 1 | 3 | -7 | i
C[C@H]1CN([C@@H](C)CO)S(=O)(=O)c2ccc(-c3cccc(C(=O)N(C)C)c3)cc2O[C@@H]1CN(C)C(=O)Nc1ccc(F)cc1 | -27 | 111* | 3 | 0 | 3 | -5 | i
CC(=O)NC[C@@H]1[C@@H](c2ccc(-c3cccnc3)cc2)[C@H](CO)N1C(=O)C1CC1 | -24 | -8 | 1 | 0 | -2 | -1 | nt
CC(=O)N(C)C[C@@H]1Oc2cc(-c3cccc(C#N)c3)ccc2S(=O)(=O)N([C@@H](C)CO)C[C@H]1C | 7 | 13 | -1 | 0 | 0 | 8 | nt
CC(=O)N(C)C[C@@H]1Oc2cc(-c3cccc(C#N)c3)ccc2S(=O)(=O)N([C@H](C)CO)C[C@H]1C | 5 | 66* | -1 | 0 | 0 | 20 | i
O=C(NCC[C@H]1CC[C@H](NC(=O)C2CCCCC2)[C@H](CO)O1)c1cnccn1 | 3 | 158* | 4 | 0 | 6 | -2 | i

Screens deposited in PubChem BioAssay by Broad Institute.
